Our source for the percent of control (FP) values is PubChem BioAssay AID1224905 (ICCB-Longwood Screening Facility, Harvard Medical School, 2016).

Amino acid sequences for entries named in this document (tags omitted).
UniProt P08753, whole entry, looked up: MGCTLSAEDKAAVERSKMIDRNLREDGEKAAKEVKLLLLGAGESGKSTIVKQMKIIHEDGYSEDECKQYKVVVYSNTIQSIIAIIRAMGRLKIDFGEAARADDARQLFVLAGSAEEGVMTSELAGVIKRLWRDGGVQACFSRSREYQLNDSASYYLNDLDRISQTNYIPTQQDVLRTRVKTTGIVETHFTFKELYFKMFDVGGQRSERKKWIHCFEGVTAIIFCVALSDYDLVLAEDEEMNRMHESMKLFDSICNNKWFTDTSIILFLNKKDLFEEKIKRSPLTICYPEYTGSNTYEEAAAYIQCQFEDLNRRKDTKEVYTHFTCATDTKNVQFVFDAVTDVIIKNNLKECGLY

The campaign covered roughly 210,000 compounds. About 880 (0.42%) were called active.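 The calls were made as follows: active = replicate mean at 85% of control or lower with very high polarization wells dropped (limit read from the data); inactive = the rest.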 The entries come from a sample that favours actives as a whole.

The assay concerns the target Guanine nucleotide-binding protein G(i) subunit alpha-3 (Rattus norvegicus) (UniProt P08753). The experiment in a line: disruptors of GIV-Galphai3 protein-protein interaction – biochemical, fluorescence polarization, FITC-GIV GBA peptide, rat Galphai3, primary screen (AID 1224905). The conditions noted are these: Galpha-i3/FITC-GIV peptide fluorescence polarization, 90 min, stronger effect = lower value. Background: Polarisation of emitted light reports the rotation of a fluorescent probe.
For the compound `CN1CCc2c(c(S)[nH]c(=S)c2C#N)C1`, the percent of control (FP) was 35% (active).
Then `O=C(NCCN1CCOCC1)c1cc2cccnc2n(Cc2ccccc2)c1=O`, with 108% [scaled: aluminum fluoride 0%, vehicle 100%] (inactive); and `CCOC(=O)C1CC2CCCN2C12C(=O)N(Cc1ccccc1)c1ccccc12` (stereo not given), with 101% (inactive); and `O=c1c2ccccc2nc(COc2ccc(Cl)cc2)n1-c1ccc(Br)cn1`, with 98.1% (inactive).
With `Cc1nc2nc(-c3ccc(C(C)(C)C)cc3)nn2c(C)c1CC(=O)N1CCN(CCO)CC1`, the percent of control (FP) was 102% [scaled: aluminum fluoride 0%, vehicle 100%] (inactive).
